Here are results for four molecules from patent US5248796A, “Taxol derivatives” (Bristol-Myers Squibb Company, priority 1992, dated 1993).

This assay concerns HCT-116/VM46 human colon carcinoma cells. Kind of assay: In vitro cytotoxicity, XTT assay, HCT-116/VM46 cells (teniposide-resistant, multidrug resistance phenotype). The class given is cell-based. Conditions: for fold resistance relative to HCT116 cells: HCT-116/VM46 relative to HCT116, value in parenthesis, 4320 min; for IC50: read-out: IC50 HCT-116/VM46, HCT-116/VM46, teniposide-resistant, multidrug resistance phenotype, XTT, 72 hours, 37° C. (In general: Tetrazolium dyes change colour on reduction, which living cells bring about.)

Consider `C=C1C2=CC(=O)[C@]3(C)[C@@H](OC(=O)C(F)Cl)C[C@H]4OC[C@@]4(OC(C)=O)[C@H]3[C@H](OC(=O)c3ccccc3)[C@](O)(C[C@@H]1OC(=O)[C@H](O)[C@@H](NC(=O)c1ccccc1)c1ccccc1)C2(C)C` (some centres unmarked) [Example 3, 7-O-chlorofluoroacetyl-10-desacetoxy-11,12-dihydrotaxol-10,12(18)-diene], for which the “fold resistance relative to HCT116 cells” value is 51 fold and the IC50 was 1.95 µM.
Consider `C=C1C2=CC(=O)[C@@]3(C)[C@H]([C@H](OC(=O)c4ccccc4)[C@](O)(C[C@@H]1OC(=O)[C@H](O)[C@@H](NC(=O)c1ccccc1)c1ccccc1)C2(C)C)[C@]1(OC(C)=O)CO[C@@H]1C[C@@H]3O` [Example 9, 10-Desacetoxy-11,12-dihydrotaxol-10,12(18)-diene], for which the “fold resistance relative to HCT116 cells” value was 23 fold and the IC50 came out at 0.86 µM.
In the same order, the values of `C=C1C2=CC(=O)[C@]3(C)[C@H](O)C[C@H]4OC[C@@]4(OC(C)=O)[C@H]3[C@H](OC(=O)c3ccccc3)[C@](O)(C[C@@H]1OC(=O)[C@H](O)[C@@H](NC(=O)c1ccccc1)c1ccccc1)C2(C)C` [Example 16, 10-Desacetoxy-11,12-dihydro-7-epitaxol-10,12(18)-diene] are 21 fold and 0.855 µM.
In the same order, the values of `CC(=O)O[C@@]12CO[C@@H]1C[C@H](OC(=O)C(F)Cl)[C@@]1(C)C(=O)CC3=C(C)[C@@H](OC(=O)[C@H](O)[C@@H](NC(=O)c4ccccc4)c4ccccc4)C[C@@](O)([C@@H](OC(=O)c4ccccc4)[C@H]21)C3(C)C` (some centres unmarked) [Example 4, 7-O-chlorofluoroacetyl-10-desacetoxytaxol] are 158 fold and 1.26 µM.
